Values of other authors in patent US20100017370A1, “T CELL EPITOPE DATABASES” (ANTITOPE LIMITED, priority 2006, published 2010).

Details: human, in vivo; cited from earlier work

humanised anti-HER2 antibody: humanised anti-HER2 antibody known as Herceptin®
clinical immunogenicity compared to humanised A33: lower level of clinical immunogenicity
